System: G11 heterotrimers activated via muscarinic acetylcholine receptor M3

activation potency: comparable across all mutations
Structure (SMILES): C[N+](C)(C)CCOC(N)=O [carbachol]

— publication PMC12088423 (Proceedings of the National Academy of Sciences of the …, 2025)
